The text below walks through data of patent US11242354B2, “4-sulfur substituted podophyllotoxin derivative and preparation method therefor and use thereof” (priority 2017, dated 2022).

This test has as its system human normal hepatocytes HL-7702. Nature of the test: MTT test on human normal hepatocytes HL-7702. The note with it: read-out: IC50 HL-7702; human normal hepatocytes HL-7702, MTT, 48 h.

As usually defined, the IC50 is the midpoint of a concentration-inhibition curve. Consider “4β-S-(3-phenyl-1,3,4-thiadiazol-2(3H)thione potassium salt-5)-podophyllotoxin [Compound 25]”, for which the 50% inhibitory concentration (IC50) is 57.5 ± 2.99 µM.
Consider “4β-S-(3-phenyl-1,3,4-thiadiazol-2(3H)thione potassium salt-5)-4demethylepipodophyllotoxin [Compound 26]”, for which the half-inhibitory concentration (IC50) worked out at 43.4 ± 4 µM.
